Antibody variant affinities, Ab-14 light chain, assay B

Antigen: PDVDLGDISGINAS, a 14-residue peptide of the SARS-CoV-2 spike HR2 region.

Parent scFv Ab-14: VH joined to VL by a (GGGGS)3 linker. Changes lie in the light chain CDRs alone.
VH: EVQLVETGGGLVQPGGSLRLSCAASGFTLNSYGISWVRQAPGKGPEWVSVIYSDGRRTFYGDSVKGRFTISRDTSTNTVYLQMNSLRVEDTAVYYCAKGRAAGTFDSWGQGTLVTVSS
VL: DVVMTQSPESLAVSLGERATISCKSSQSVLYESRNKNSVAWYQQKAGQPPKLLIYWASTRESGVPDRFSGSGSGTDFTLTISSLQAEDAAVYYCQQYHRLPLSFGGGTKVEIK

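The starting antibody came from a phage panning campaign against this peptide. Designed CDR sequences, proposed from the first random library and measured here. Group labels follow the data file (Ctrl: baseline library sampled from a position-specific scoring matrix, with some repeated check sequences; GP: Gaussian process model; Gen: genetic algorithm; a sequence that several methods proposed may carry one label only). The assay is AlphaSeq: two haploid yeast populations carry antibody and antigen on their surface. Pairs that bind mate more often; barcode pairs of the diploids are counted by sequencing. The ratio of observed to expected reads was calibrated, replicate by replicate, on BCL2-family standards whose Kd was known from biolayer interferometry. The assay was run in six technical replicates.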

Each variant is given by its three light chain CDRs, as the data file delimits them; those of the parent are KSSQSVLYESRNKNSVA, WASTRES, QQYHRLPLS.
Affinities are written as log10 Kd with Kd in nM; a lower number is a better binder.
"n.d." marks a missing value. The strain was present, yet no cells mated with the target were sequenced in that replicate, which points to weak or no binding.
Background: pairings of all light chain designs with three empty control strains gave a value in 4% of cases (median 2.64, 5th percentile 1.59). Values in that range, when seen in few replicates, are hard to tell from nonspecific mating. Also given: how often the same scFv was detected with the empty control strains, with their mean in brackets.
The parent sequence was in this pool as ten entries: three were never detected, three once, and four in most replicates, with averages from 0.34 to 2.37.
Some sequences occur more than once in the pool; their replicates are listed entry by entry, parted by semicolons.
The range of this assay differs from that of the first round, and the authors advise against merging the two.
The authors averaged sequences with at least three values out of six and counted those with two or fewer as poor binders.

CDR-L1,CDR-L2,CDR-L3,group,"replicates, log10 nM",control signals
KSSQSVLYESVWKNSVA,HASTREF,QQYHRLPLS,Ctrl,1.26 / 1.70 / 1.80 / 0.81 / 1.13 / 1.06,0 of 18
KSSQSVLREGGNGNSVA,EASTRES,QQYHLLPLS,Ctrl,1.05 / 1.02 / 0.88 / 1.11 / 0.84 / 0.79,0 of 18
KSSQGVLYESTNKNSVA,QASTRES,QQYVRLPLS,Ctrl,0.08 / 0.35 / 0.11 / 0.32 / 0.19 / 0.48,1 of 18 (2.19)
KMQQSVLEESRNKNSVA,WASTRES,QQYHRLHLE,Ctrl,n.d. / n.d. / n.d. / n.d. / n.d. / n.d.,0 of 18
KSSQSVLYEGRNKNSVA,SASTRES,QQYHRLPLS,Ctrl,0.42 / 0.84 / 0.42 / 0.71 / 0.52 / 0.94,0 of 18
KSSTSGLYESDNKNSVA,DASTRES,QQYHRLPLS,Ctrl,-0.32 / -0.21 / -0.40 / -0.48 / -0.43 / 0.07,0 of 18
KRSQSMLYESRNKNSCA,KASTRES,QQYLRLPLA,Ctrl,n.d. / 2.24 / 0.73 / 1.08 / 1.39 / 1.87,0 of 18
KSSQSVQYESRNKNSVA,DASTRFS,QQYHRLPLS,Ctrl,0.44 / 0.48 / 0.07 / 0.56 / 0.27 / 0.74,1 of 18 (2.90)
KTSQSVLYESRNKNSVA,WASTRVS,KQYHRLPLS,Ctrl,1.60 / 1.38 / 0.97 / 1.63 / 1.80 / 1.59,0 of 18
KSSQSVLYESRNKNSVA,AASIRIS,QQKHRLPLS,Ctrl,n.d. / n.d. / n.d. / n.d. / n.d. / n.d.,0 of 18
KSSQSVLQESRNKNSVA,WASTGES,QYYHRLPLS,Ctrl,n.d. / n.d. / n.d. / n.d. / n.d. / n.d.,2 of 18 (1.14)
KSSQSVLFEERNKNSVA,WASTRAS,QQYHRLPLS,Ctrl,0.72 / 0.41 / 0.77 / 1.27 / 1.03 / 1.18,0 of 18
KSSQSVLYSSRNKNSVA,WASTRES,QQYHRLELS,Ctrl,n.d. / n.d. / n.d. / n.d. / n.d. / n.d.,0 of 18
KSSQSVQYESNNKNSVA,WASTRES,QQYHELPLS,Ctrl,1.60 / 1.18 / 2.14 / n.d. / 1.53 / 2.86,0 of 18
KSSQSVLYESRRKNSVA,WALTPEQ,TKYHRLPLS,Ctrl,n.d. / n.d. / n.d. / n.d. / n.d. / n.d.,0 of 18
KYSQNVLYESRNKNSVA,WASTRES,QLYTRLPLS,Ctrl,n.d. / n.d. / n.d. / n.d. / n.d. / n.d.,0 of 18
KLSQSVLYESRNKNSVA,GASTRES,QQYHRLPLS,Ctrl+GP_Gen,-0.23 / -0.24 / -0.35 / -0.40 / -0.42 / -0.11; -0.40 / -0.42 / -0.55 / -0.65 / -0.55 / -0.37,1 of 36 (2.74)
KLSQSVLYEWGNKNSHA,WASTRES,QQYHRLPLS,Ctrl,n.d. / n.d. / n.d. / n.d. / n.d. / n.d.,0 of 18
KSSGSVLYEMRNDNSVA,WASTRES,QQFHRLPLS,Ctrl,n.d. / n.d. / n.d. / n.d. / n.d. / n.d.,0 of 18
KMSQSVLLESRNKNSVA,WDSTRES,QQYHRLPLC,Ctrl,1.05 / n.d. / 1.23 / 1.65 / 1.19 / 2.09,0 of 18
RSSQSVLYESRNKNSVA,EASERES,QQYHRLPLS,Ctrl,0.55 / 0.67 / 0.60 / 0.30 / 0.46 / 0.55,0 of 18
KSSQSVLYGSRNLNSVA,WHSTRCS,QQYHRLMLS,Ctrl,n.d. / n.d. / n.d. / n.d. / n.d. / n.d.,0 of 18
KSSNSTLYESRNKNSVA,WASTRES,QQYHRLPLS,Ctrl,n.d. / n.d. / n.d. / n.d. / 3.70 / 2.43,1 of 18 (2.08)
KSSQEVLYESLNKNSVA,YASTRES,QQYHRQPLM,Ctrl,n.d. / n.d. / n.d. / n.d. / n.d. / n.d.,0 of 18
KSMQSQLYESRNKNSVA,DASTRES,QQYFRLPLS,Ctrl,0.08 / 0.08 / -0.38 / -0.09 / -0.19 / 0.02,1 of 18 (3.41)
KSSQSVLSESRNKNSVA,WASTRES,QQYHRLPLS,Ctrl,1.48 / 1.71 / 1.84 / 1.88 / 1.47 / 1.86,2 of 18 (3.06)
KSSQSVLYESCNKNSVA,WASTRES,QQYHRLPLS,Ctrl,n.d. / n.d. / n.d. / n.d. / n.d. / n.d.,0 of 18
KISQSVLYESTNKNSVA,QASTRNS,QQYHRLPLS,Ctrl,0.05 / 0.00 / -0.09 / 0.02 / -0.20 / -0.04,0 of 18
KLSQSVLAESRNKNSVA,WASTRES,QQYHRLPLS,Ctrl,0.19 / 0.07 / -0.16 / 0.07 / -0.26 / -0.04,2 of 18 (3.11)
KNSQSVLYESANKNSVA,EGSTRES,QQYHRLPLS,Ctrl,0.17 / 0.16 / 0.00 / -0.02 / -0.14 / 0.20,3 of 18 (2.85)
KDSQSWLYESRNKNPVA,WASTRES,QYYHRLPLD,Ctrl,n.d. / n.d. / n.d. / 0.55 / n.d. / n.d.,0 of 18
KSSQSVLYESRNKNSVA,SASERYS,QQYHRLPLS,Ctrl,0.54 / 0.73 / -0.29 / 0.24 / 0.13 / 0.40,0 of 18
KMAQSVLYESRNKNSVA,HASTRES,QQYHRLPLS,Ctrl,0.55 / 0.14 / 0.22 / 0.35 / 0.16 / 0.34,0 of 18
KSSQSVLYESPNKNSVA,WASTRES,QQYHHLPLS,Ctrl,n.d. / 2.68 / 1.32 / 1.28 / 2.92 / 1.98,1 of 18 (2.86)
KLSQSVWYESRNKNSVA,FASTRES,QQYHRLPLS,Ctrl,1.65 / 0.89 / 0.99 / 0.69 / 1.41 / 1.53,1 of 18 (1.75)
KSSQSVMYESRNKNSVA,WASTRES,QQYYRLPLS,Ctrl,1.26 / 1.62 / 1.56 / 1.80 / 2.27 / 2.15,0 of 18
KQGQSVLYESLNKNSVA,QASTREL,QQYERLPLS,Ctrl,n.d. / n.d. / n.d. / n.d. / n.d. / n.d.,0 of 18
KSSQSVVYEKQNKNSVA,WASTRES,QQYHRLPLS,Ctrl,1.73 / 1.66 / 2.09 / 1.76 / 2.06 / 2.56,1 of 18 (2.56)
KMSQSELYESRNKKSVA,AASTRES,QQYHRLPNS,Ctrl,n.d. / 2.51 / 1.41 / 1.63 / 1.86 / 1.59,0 of 18

Repeated from above, the 5 best binders with a signal in all replicates:

CDR-L1,CDR-L2,CDR-L3,group,"replicates, log10 nM",control signals
KLSQSVLYESRNKNSVA,GASTRES,QQYHRLPLS,Ctrl+GP_Gen,-0.23 / -0.24 / -0.35 / -0.40 / -0.42 / -0.11; -0.40 / -0.42 / -0.55 / -0.65 / -0.55 / -0.37,1 of 36 (2.74)
KSSTSGLYESDNKNSVA,DASTRES,QQYHRLPLS,Ctrl,-0.32 / -0.21 / -0.40 / -0.48 / -0.43 / 0.07,0 of 18
KSMQSQLYESRNKNSVA,DASTRES,QQYFRLPLS,Ctrl,0.08 / 0.08 / -0.38 / -0.09 / -0.19 / 0.02,1 of 18 (3.41)
KISQSVLYESTNKNSVA,QASTRNS,QQYHRLPLS,Ctrl,0.05 / 0.00 / -0.09 / 0.02 / -0.20 / -0.04,0 of 18
KLSQSVLAESRNKNSVA,WASTRES,QQYHRLPLS,Ctrl,0.19 / 0.07 / -0.16 / 0.07 / -0.26 / -0.04,2 of 18 (3.11)

From the AlphaSeq antibody data of Li et al. 2023 (doi:10.1038/s41467-023-39022-2), copy in the FLAb collection.